Biological target: NAMPT (Homo sapiens, UniProt P43490)
Experiment: Biochemical inhibition assay: NAMPT enzymatic reaction, NMN quantified by mass spectrometry
Conditions: read-out: Biochem IC50 uM

Chains of the proteins cited; added tags and fusions are not shown.
UniProt P43490, whole entry: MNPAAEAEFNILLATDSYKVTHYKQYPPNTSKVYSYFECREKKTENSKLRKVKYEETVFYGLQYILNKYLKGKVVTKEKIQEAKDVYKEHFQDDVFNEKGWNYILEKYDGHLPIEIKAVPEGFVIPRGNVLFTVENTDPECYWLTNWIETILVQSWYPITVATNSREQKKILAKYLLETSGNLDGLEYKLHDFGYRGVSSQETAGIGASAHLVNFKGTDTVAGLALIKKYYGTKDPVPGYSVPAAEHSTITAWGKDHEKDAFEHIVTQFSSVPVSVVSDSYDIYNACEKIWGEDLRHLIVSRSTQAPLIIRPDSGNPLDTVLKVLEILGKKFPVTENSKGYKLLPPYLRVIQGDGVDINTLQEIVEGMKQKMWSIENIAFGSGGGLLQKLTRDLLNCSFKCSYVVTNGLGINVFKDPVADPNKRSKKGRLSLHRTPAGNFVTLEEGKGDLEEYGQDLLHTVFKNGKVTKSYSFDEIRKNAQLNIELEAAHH

O=C(NCc1ccc(S(=O)(=O)c2ccc(N3CCOCC3)nc2)cc1)c1cnc2[nH]ncc2c1
IC50: 0.0057 µM

From US12336981B2, “Compounds and compositions for the inhibition of NAMPT” (Valo Health, Inc., priority 2010, dated 2025)
